Data reported in publication PMC7923228, “Phosphoinositide 3-Kinase (PI3K) Reactive Oxygen Species (ROS)-Activated Prodrug in Combination with Anthracycline Impairs PI3K Signaling, Increases DNA Damage Response and Reduces Breast Cancer Cell Growth” (International Journal of Molecular Sciences, 2021).

Key:
[1] = mouse, in vivo, ip, 20 mg/kg
[2] = 40% propylene glycol with 60% injectable saline; dose 20 mg/kg

ROS-induced drug release 3-(4-morpholinopyrido[3′,2′:4,5]furo[3,2-d]pyrimidin-2-yl)phenol [RIDR-PI-103]
K01 [1]: 2.5 h⁻¹ | V/F [1]: 89 L/kg | apparent volume of distribution [1]: 89 L | λz [1]: 0.073 h⁻¹ | solubility in formulation [2]: soluble in solution and not a suspension
